# Measurements reported in patent publication US10590086B2, “Pharmaceutical compound” (IOmet Pharma Ltd., priority 2014, dated 2020).
# Sequences of proteins named here, by UniProt entry; tags and fusion partners are left off.
# UniProt P48775, whole entry: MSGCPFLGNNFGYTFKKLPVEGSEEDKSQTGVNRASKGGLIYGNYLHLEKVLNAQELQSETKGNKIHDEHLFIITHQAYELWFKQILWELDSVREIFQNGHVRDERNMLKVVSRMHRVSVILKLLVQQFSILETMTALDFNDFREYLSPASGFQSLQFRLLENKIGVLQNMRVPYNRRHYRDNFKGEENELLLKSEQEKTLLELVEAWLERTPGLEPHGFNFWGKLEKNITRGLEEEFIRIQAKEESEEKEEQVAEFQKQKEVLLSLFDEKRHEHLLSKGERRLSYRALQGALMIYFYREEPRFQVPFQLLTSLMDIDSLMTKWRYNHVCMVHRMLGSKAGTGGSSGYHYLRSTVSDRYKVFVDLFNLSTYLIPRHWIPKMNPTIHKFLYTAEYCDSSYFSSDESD
# UniProt P14902, whole entry: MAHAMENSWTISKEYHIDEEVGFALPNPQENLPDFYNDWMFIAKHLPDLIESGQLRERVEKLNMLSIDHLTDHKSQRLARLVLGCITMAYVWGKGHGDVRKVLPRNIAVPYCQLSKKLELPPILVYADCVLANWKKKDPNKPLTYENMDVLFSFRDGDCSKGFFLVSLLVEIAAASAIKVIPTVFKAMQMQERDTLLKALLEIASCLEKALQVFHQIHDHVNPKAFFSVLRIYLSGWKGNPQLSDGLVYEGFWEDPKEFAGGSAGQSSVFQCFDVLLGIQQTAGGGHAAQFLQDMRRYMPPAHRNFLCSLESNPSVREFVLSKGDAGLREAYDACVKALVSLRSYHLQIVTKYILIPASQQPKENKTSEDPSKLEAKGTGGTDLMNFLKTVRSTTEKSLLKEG
# How the values were obtained:
# TDO [1] = target: T1, TDO (Homo sapiens, UniProt P48775); assay: A172 kynurenine cell-based assay; conditions: A172 human glioblastoma cells, 48 hours, 500 μM L-tryptophan
# IDO [2] = target: T2, IDO (Homo sapiens, UniProt P14902); assay: SKOV3 kynurenine cell-based assay (IDO induced by IFN-γ); conditions: SKOV3 human ovarian adenocarcinoma cells, 500 ng/ml IFN-γ, 48 hours, 500 μM L-tryptophan
# IDO [3] = target: T2, IDO; assay: hIDO biochemical coupled assay; conditions: 45 μM L-tryptophan, 17 minutes, room temperature
# TDO [4] = target: T1, TDO; assay: hTDO biochemical coupled assay; conditions: 330 μM L-tryptophan, 17 minutes, room temperature
Structure (SMILES),A172 Kynurenine cell based assay pIC50 (TDO [1]),SKOV3 Kynurenine cell based assay pIC50 (IDO [2]),hIDO biochemical assay pIC50 (IDO [3]),hTDO biochemical assay pIC50 (TDO [4])
OC(CC1CCCCC1)c1cc(Cl)cc2[nH]ncc12 (centres unmarked),+++ (+++ = pIC50 ≥ 5.50),+ (+ = pIC50 4.00-4.49),+/− (+/− = pIC50 < 4.00),
COCCN1C(=O)NC2(CCN(c3cc(Cl)cc4[nH]ncc34)CC2)C1=O,+++ (+++ = pIC50 ≥ 5.50),+++ (+++ = pIC50 ≥ 5.50),+++ (+++ = pIC50 ≥ 5.50),+++ (+++ = pIC50 ≥ 5.50)
O=C(CCF)N1CCC(c2cc(Cl)cc3[nH]ncc23)CC1,+++ (+++ = pIC50 ≥ 5.50),,,
